{"sequences": {"note": "Sequences of proteins named here, by UniProt entry; tags and fusion partners are left off. Residues count along the entry.", "UniProt P15907, 27-406 limits assumed": "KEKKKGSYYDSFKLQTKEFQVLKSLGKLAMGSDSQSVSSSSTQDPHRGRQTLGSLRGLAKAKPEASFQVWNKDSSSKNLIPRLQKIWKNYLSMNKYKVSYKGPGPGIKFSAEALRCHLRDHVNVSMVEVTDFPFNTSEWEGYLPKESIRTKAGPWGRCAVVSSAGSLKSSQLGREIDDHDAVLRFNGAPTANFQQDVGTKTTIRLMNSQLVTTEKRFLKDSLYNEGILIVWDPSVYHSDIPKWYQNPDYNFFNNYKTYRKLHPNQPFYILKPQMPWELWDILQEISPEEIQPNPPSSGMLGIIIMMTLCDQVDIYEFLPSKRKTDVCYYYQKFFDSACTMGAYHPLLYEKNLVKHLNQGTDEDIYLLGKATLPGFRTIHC", "UniProt Q10469, 30-447 limits assumed": "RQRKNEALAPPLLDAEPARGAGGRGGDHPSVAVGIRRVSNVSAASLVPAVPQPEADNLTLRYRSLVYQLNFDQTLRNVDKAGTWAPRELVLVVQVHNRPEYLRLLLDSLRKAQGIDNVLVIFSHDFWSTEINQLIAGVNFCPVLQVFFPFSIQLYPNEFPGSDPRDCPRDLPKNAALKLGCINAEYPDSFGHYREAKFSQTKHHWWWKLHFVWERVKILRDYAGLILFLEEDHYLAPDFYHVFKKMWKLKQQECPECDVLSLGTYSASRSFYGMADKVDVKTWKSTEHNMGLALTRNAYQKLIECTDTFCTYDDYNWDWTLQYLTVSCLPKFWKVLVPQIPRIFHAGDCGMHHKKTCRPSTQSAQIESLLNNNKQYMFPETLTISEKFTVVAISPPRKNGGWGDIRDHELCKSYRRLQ"}, "source": "paper PMC10900492", "about": "“Asymmetrical Biantennary Glycans Prepared by a Stop-and-Go Strategy Reveal Receptor Binding Evolution of Human Influenza A Viruses” (2024)", "key": {"[1]": {"biological_target": "ST6Gal1 (Homo sapiens, UniProt P15907)", "test": "preparative glycosyl transfer, LC-MS and NMR of product", "details": "acceptors 20-22, cacodylate pH 6.5, 37 °C"}, "[2]": {"biological_target": "MGAT2 (Homo sapiens, UniProt Q10469)", "test": "preparative glycosyl transfer, LC-MS and NMR of product", "details": "HEPES pH 7.0, 37 °C"}}}
{"smiles": "CC(=O)N[C@H]1[C@H]([C@H](O)[C@H](O)CO)O[C@](OP(=O)(O)OC[C@H]2O[C@@H](n3ccc(N)nc3=O)[C@H](O)[C@@H]2O)(C(=O)O)C[C@@H]1O", "values": [{"measurement": "preparative glycosyl transfer, LC-MS and NMR of product", "setting": "[1]", "result": "by ST6Gal1 in the presence of CMP-Neu5Ac"}]}
{"smiles": "CC(=O)N[C@H]1[C@@H](OP(=O)(O)OP(=O)(O)OC[C@H]2O[C@@H](n3ccc(=O)[nH]c3=O)[C@H](O)[C@@H]2O)O[C@H](CO)[C@@H](O)[C@@H]1O", "values": [{"measurement": "preparative glycosyl transfer, LC-MS and NMR of product", "setting": "[2]; acceptor glycan 13, MnCl2 2 mM", "result": "further modified by MGAT2 in the presence of UDP-GlcNTFA or UDP-GlcNAc"}]}
{"smiles": "O=C(N[C@H]1[C@@H](OP(=O)(O)OP(=O)(O)OC[C@H]2O[C@@H](n3ccc(=O)[nH]c3=O)[C@H](O)[C@@H]2O)O[C@H](CO)[C@@H](O)[C@@H]1O)C(F)(F)F", "values": [{"measurement": "preparative glycosyl transfer, LC-MS and NMR of product", "setting": "[2]; acceptor glycan 10, MnCl2 2 mM", "result": "MGAT2 can utilize an unnatural donor such as UDP-GlcNTFA"}]}
